Details: relative to the salt with a = 1.10

With “sodium salt of a α-tocopherol phosphoric acid ester” the “required time for dissolving it in water as compared to the case in which a is 1.10” value was “one third”.

Reference: patent US20180086779A1, “TOCOPHEROL PHOSPHORIC ACID ESTER SALT, METHOD FOR MANUFACTURING THE SAME, AND SKIN EXTERNAL PREPARATION” (priority 2015, published 2018)
